Values quoted from earlier work in patent US20080234352A1, “Controlled release solid dispersions” (EGALET A/S, priority 2001, published 2008).

Experiments:
[1] = in vivo

Row | SMILES | beta effect relative to S(−) (beta-adrenoreceptor) | α effect relative to S(−) (α-adrenoceptor) | t½ [1] [h]
1 | COc1ccccc1OCCNC[C@@H](O)COc1cccc2[nH]c3ccccc3c12 [R(+), R(+) carvedilol] | 1/100 | the same | 9.6
2 | COc1ccccc1OCCNC[C@H](O)COc1cccc2[nH]c3ccccc3c12 [S(−), S(−) carvedilol] | – | – | 22.1
